Measurements reported in article PMC10681007, “Targeted Degradation of XIAP is Sufficient and Specific to Induce Apoptosis in MYCN-overexpressing High-risk Neuroblastoma” (Cancer Research Communications, 2023).
Several values for one entry are separate records, joined by “and”; a condition that tells them apart may be missing. Equal entries are not always repeated. Where two headings read alike, the source gives them in different places.

Amino acid sequences for entries named in this document (tags omitted).
UniProt P98170, whole entry: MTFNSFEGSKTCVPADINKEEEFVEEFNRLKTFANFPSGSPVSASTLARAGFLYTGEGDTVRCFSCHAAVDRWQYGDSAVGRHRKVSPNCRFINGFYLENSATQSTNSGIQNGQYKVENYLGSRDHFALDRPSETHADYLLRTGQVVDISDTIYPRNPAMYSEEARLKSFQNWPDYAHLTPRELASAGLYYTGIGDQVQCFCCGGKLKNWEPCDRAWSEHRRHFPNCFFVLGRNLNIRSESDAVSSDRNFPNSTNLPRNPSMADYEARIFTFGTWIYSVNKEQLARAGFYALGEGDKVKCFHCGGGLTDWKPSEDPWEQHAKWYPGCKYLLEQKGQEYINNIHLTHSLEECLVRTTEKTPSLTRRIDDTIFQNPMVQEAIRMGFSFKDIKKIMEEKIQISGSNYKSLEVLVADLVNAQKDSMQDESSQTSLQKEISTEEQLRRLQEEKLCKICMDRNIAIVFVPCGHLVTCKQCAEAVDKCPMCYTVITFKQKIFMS

Key:
HS5 (bone marrow origin) = assay: RealTime-Glo MT cell viability assay, noncancerous normal cells; type: cell-based, Human
THLE3 (liver origin) = assay: as above; type: cell-based, Human
endogenous XIAP = endogenous XIAP (Homo sapiens, UniProt P98170); assay: Degradation of endogenous luciferase-tagged XIAP (HiBiT/LgBiT), real-time luminescence; type: cell-based; conditions: for DC50: read-out: DC50, degradation curve at 2h, 2 hours
THLE3 and HS5 = assay: Toxicity and tolerability in noncancerous normal tissue-derived cell lines; conditions: THLE3 and HS5 versus neuroblastoma cells
Description: Cell viability was measured in real time using RealTime-Glo MT Cell Viability Assay as according to manufacturer's instructions from Promega. Cells were seeded at 1 × 10^4 cells per well and treated with a range of doses of indicated antagonists, followed by continuous bioluminescence reading every 24 hours for 3 days using luminescent plate reader, Varioskan (SkanIT software). IC50 was determined using GraphPad Prism software.
To evaluate this, noncancerous normal tissue-derived cell lines THLE3 and HS5 were utilized to evaluate toxicity and tolerability. XIAP-specific antagonists A4 and B3 were the least toxic to noncancerous cells and were the most discriminatory in killing neuroblastoma cells (Supplementary Table S2; Fig. 2A). In contrast, the pan-IAP antagonists especially LCL161, CUDC-427, and Debio 1143, were more toxic toward noncancerous cells than neuroblastoma cells and thus, deemed unsuitable for use in neuroblastoma treatment. On the basis of their overall potency and specificity toward neuroblastoma cells over noncancerous normal cells, A4, B3, and BV6 were selected as the more efficacious antagonists to be studied further in subsequent experiments (Fig. 2A).

XIAP = XIAP (Homo sapiens, UniProt P98170); assay: XIAP expression in tumors harvested from A4-treated PDXs (immunoblot densitometry); conditions: for XIAP/B-actin relative to 0 h, single sets M1, M2, M3 / XIAP/B-actin relative to 0 h, AVG: tumor; for XIAP/B-actin relative to 0 h, AVG: n = 3
Description: FIGURE 4 Treatment with XIAP-specific antagonist A4 prolongs and improves overall survival in high-risk neuroblastoma PDXs. A, Top, Immunoblot analysis of XIAP, cleaved PARP and cleaved caspase-3 expression in tumors harvested from treated neuroblastoma PDXs. Neuroblastoma PDXs were treated with 10 mg/kg A4 via intraperitoneal injection. Tumors were harvested over the following time courses of 0, 0.5, 1, 2, 4, 24, and 48 hours after dosing. β-actin is used as internal control. Bottom, Graphical representation of densitometry ratio for XIAP expression normalized to β-actin in tumors harvested from neuroblastoma PDXs as described in A (Supplementary Data S2). Values were expressed as mean ± SD with n = 3/timepoint. B, Kaplan–Meier survival plot of MYCN-amplified neuroblastoma PDXs (n = 9/treatment group). Blue line indicates percentage survival of vehicle-treated mice (control) and green line is the percentage survival of A4-treated mice (10 mg/kg). The mice were monitored over a period of 7 weeks, including 4 weeks of stabilizing implantation and subsequent 3 weeks of treatment period. log-rank (Mantel–Cox test) derived from Kaplan–Meier survival plot was used for statistical comparisons between groups with *, P < 0.05. C, Bioluminescence imaging of tumor growth in two representative neuroblastoma PDXs.
Whole cell lysates harvested were lysed in EBC buffer (pH 8.0 of 50 mM Tris, 0.5% NP-40, 120 mM sodium chloride) containing protease inhibitors and protein concentration were quantified using the Bradford assay (Thermo Fisher Scientific). 60 -100 µg of proteins were separated by 12% gel SDS-PAGE followed by a wet-transfer onto PVDF membranes (BioRad). Membranes were probed overnight at 4°C with specific primary antibodies as stated in key resources table. Detection was performed using X-ray film with enhanced chemiluminescence method (Merck) Densitometric analysis of the blots for quantification of protein expression ratios was performed using ImageJ software.
The testing dose of A4 10 mg/kg was injected intraperitoneally into the orthotopic neuroblastoma PDXs. 150-200 μL of blood was taken from mice via cardiac puncture and tumors were harvested over the following time courses of 0, 0.5, 1, 2, 4, 24 and 48 hours post-dosing (n=3/time point). The concentrations of A4 in mouse plasma and tumor samples were determined and validated by a highly sensitive liquid chromatography tandem mass spectrometry (LC–MS/MS) method with multiple reaction monitoring (MRM) mode. The LC-MS/MS system consisted of Agilent 1290 ultra high-performance liquid chromatography (UHPLC) connected in tandem to Sciex QTRAP 5500 mass spectrometer system. Chromatographic separation was optimized using a liquid–liquid extraction and a reversed phase separation on a Kinetex F5 column (100 mm x 2.1 mm, 2.6 μm) with isocratic elution. Ethyl indole-2-carboxylate was used as the internal standard (IS). MRM transitions 441.2/189.0 (A4) and 190.1/114.1 (IS) were monitored with a dwell time of 300 msec and analyst 1.6.2 software (Sciex) was used to quantify the peaks with 1/x2 weighted linear regression.

Compound: COC(=O)c1[nH]c2ccc(Cl)cc2c1NC(=O)CN1CCN(Cc2ccccc2)CC1
- IC50 (HS5 (bone marrow origin); HS5, 24 hours): 17.6 µM
- IC50 (HS5 (bone marrow origin); HS5, 48 hours): 19.3 µM
- IC50 (HS5 (bone marrow origin); HS5, 72 hours): 16.6 µM
- IC50 (THLE3 (liver origin); THLE3, 24 hours): 26.8 µM
- IC50 (THLE3 (liver origin); THLE3, 48 hours): 16 µM
- IC50 (THLE3 (liver origin); THLE3, 72 hours): 12.6 µM
- time to rapid degradation of XIAP posttreatment (endogenous XIAP; BE(2)-C and KELLY cells): 10 to 15 min
- DC50 (endogenous XIAP; BE(2)-C): 22.3 µM
- DC50 (endogenous XIAP; KELLY): 3.94 µM and 3.9 µM
- toxicity to noncancerous cells (THLE3 and HS5): least toxic to noncancerous cells
- XIAP tissue expression and apoptosis in PDX tumors (XIAP; 10 mg/kg, serial timepoints over 48 hours): eventual reduction of XIAP tissue expression and increased apoptosis
- XIAP/B-actin relative to 0 h, single sets M1, M2, M3 (XIAP; 0.5 h after 10 mg/kg i.p.): 1.7198 and 1.002 and 1.168
- XIAP/B-actin relative to 0 h, AVG (XIAP; 0.5 h after 10 mg/kg i.p.): 1.297
- XIAP/B-actin relative to 0 h, single sets M1, M2, M3 (XIAP; 1 h after 10 mg/kg i.p.): 0.9492 and 1.25 and 1.102
- XIAP/B-actin relative to 0 h, AVG (XIAP; 1 h after 10 mg/kg i.p.): 1.1
- XIAP/B-actin relative to 0 h, AVG (XIAP; 2 h after 10 mg/kg i.p.): 1.145
- XIAP/B-actin relative to 0 h, AVG (XIAP; 4 h after 10 mg/kg i.p.): 0.6234
- XIAP/B-actin relative to 0 h, single sets M1, M2, M3 (XIAP; 24 h after 10 mg/kg i.p.): 0.8473 and 1.329 and 0.8358
- XIAP/B-actin relative to 0 h, AVG (XIAP; 24 h after 10 mg/kg i.p.): 1.004
- XIAP/B-actin relative to 0 h, single sets M1, M2, M3 (XIAP; 48 h after 10 mg/kg i.p.): 0.7395 and 0.6136 and 0.6311
- XIAP/B-actin relative to 0 h, AVG (XIAP; 48 h after 10 mg/kg i.p.): 0.6614
